Laboratory results from patent publication US20260384455A1, “CYCLEN BASED COMPOUNDS AND THEIR GD(III) COMPLEXES FOR USE AS MULTIMODAL PET/MRI CONTRAST AGENTS” (published 2026).

Test: Kinetic inertness by acid-assisted decomplexation in 0.1M HCl at 37 °C
Conditions: for R1p: 0.47 T, 1 mM
Description: FIG. 5: Comparison of kinetic inertness of [Gd(L^4)], [Gd(L^7)] and Magnevist by acid-assisted decomplexation in 0.1M HCl at 37 °C by measurement of relaxation rate on a relaxometer. […] The Rlp value should be the same for all measured complexes after reaching thermodynamic equilibrium but elemental analysis confirmed minor differences in concentrations of the samples (pipetting error) that explain the difference. Data for unchelated GdCl3 solution of the same molar concentration is shown for reference. […] While clinically used Magnevist is decomposed almost immediately (<5 min), [Gd(L^7)] takes longer time to reach complete decomplexation.
The kinetic inertness of [Gd(L^4)] and [Gd(L^7)] was tested using acid-assisted decomplexation with HCl (0.1M). Magnevist®, gadolinium-DTPA (diethylenetriamine penta-acetic acid), a clinically used contrast agent was used as a reference and solution of GdCl3 (1 mM) in HCl (0.1M) was used as an example of fully released gadolinium from chelate. All measured complexes were used as 1 mM solutions with a volume of 150 μL and incubated at 37 °C. During decomplexation, the gadolinium ion detaches from the complex and becomes fully solvated. T1 of the sample decreases during this process since solvated gadolinium shortens T1 relaxation time to a greater degree than chelated gadolinium. The reaction reaches equilibrium when the complex is fully decomposed, and all the gadolinium is solvated. The T1 relaxation time isn't decreasing in this equilibrium state anymore. The T1 relaxation time values were determined on a relaxometer at 37 °C and a field strength of 0.47 T. The kinetic inertness was compared in paramagnetic relaxation rate: R1p=1/T1−1/T1d. The longitudinal relaxation time of the HCl (0.1M) corresponds to T1d. […] Over a 240-minute period, the T1 value of [Gd(L^4)] increased by 12%. Situation is different in the case of Magnevist, where the reaction reaches its equilibrium already after 6 minutes (Table 5). The R1p values of the Magnevist sample didn't change over time, so it can be assumed that the complex fully decomposed.

time at which decomplexation reaction reaches its equilibrium: ≤ 6 min | R1p (6 min): 8.8 s⁻¹ | R1p (8 min): 8.7 s⁻¹ | R1p (12 min): 8.7 s⁻¹ | R1p (4 h): 8.8 s⁻¹ | R1p (24 h): 8.7 s⁻¹ | decomposition time (FIG. 5): < 5 min
Structure (SMILES): O=C(O)CN(CCN(CC(=O)O)CC(=O)O)CCN(CC(=O)O)CC(=O)O.[Gd+3]
